Reference: PubChem BioAssay AID2071 (Sanford-Burnham Center for Chemical Genomics, 2009)
This is a selection; strong and weak results do not stand in their true shares. Some results for these compounds are left out of this collection, so the calls shown say nothing about other tests. Activity calls are given as the source filed them. Cut-off read from the data, not from the text of the source: active = inhibition mostly above about 24% (no sharp cut-off); inactive = mostly below about 32%.

Experiment: NALP1 inflammasome inhibitors in reconstituted yeast, colorimetric, S. cerevisiae, triplicate retest (AID 2071)
Conditions: S. cerevisiae NALP1/ASC/caspase-1 growth, X-gal OD620, 72 h; at 10 µM; hits give high values

SMILES | inhibition
CN1[C@@H]2CC[C@H]1CC(OC(=O)C(O)(c1ccccc1)c1ccccc1)C2 (some centres undefined) | inactive: 5.8%
O=C(NCC1(N2CCCCC2)CCCCC1)c1cc([N+](=O)[O-])ccc1Cl | inactive: -3.9%
Cc1ccc(C(=O)NCC2(N3CCCCC3)CCCCC2)cc1 | inactive: 26.1%
CC(C)N1C(=O)CC2(CCN(CCOC(=O)C(O)(c3ccccc3)c3ccccc3)CC2)C1=O | inactive: -8%
CCN(CC)CC(C)C(C)OC(=O)C(O)(c1ccccc1)c1ccccc1 (centres undefined) | inactive: -3.8%
COc1cc(SC)ccc1C(=O)NCC1(N(C)C)CCCCC1 | inactive: 17.4%
Cc1ccccc1C(=O)NCC1(N2CCCCC2)CCCCC1 | inactive: 7.9%
CN(C)C1CCCC1OC(=O)C(O)(c1ccccc1)c1ccccc1 (centres undefined) | inactive: -5.5%
CN(C)c1ccc(C(=O)NCC2(N(C)C)CCCCC2)cc1 | inactive: 26%
Cc1cc(C(=O)NCC2(N3CCCCC3)CCCCC2)ccc1[N+](=O)[O-] | inactive: 13.7%
CCN1CCCC(OC(=O)C2(O)c3ccccc3C=Cc3ccccc32)C1 (centres undefined) | inactive: 20.5%
O=C(NCC1(N2CCCCC2)CCCCC1)c1cccc(Br)c1 | inactive: 3.7%
COc1ccc(C(=O)NCC2(N(C)C)CCCCC2)cc1 | inactive: 13.1%
C=CCN1CCN(CCOC(=O)C(O)(c2ccccc2)c2ccccc2)CC1 | inactive: 9.3%
O=C(NCC1(N2CCCCC2)CCCCC1)c1cc(F)c(F)cc1Cl | inactive: 7%
COc1cc(C(=O)NCC2(N(C)C)CCCCC2)c([N+](=O)[O-])cc1OC | inactive: 28.1%
CN(C)C1(CNC(=O)c2ccc(Br)cc2)CCCCC1 | inactive: 25.7%
O=C(NCC1(N2CCCCC2)CCCCC1)c1cccc(Cl)c1 | inactive: 10.3%
COc1cccc(C(=O)NCC2(N3CCCCC3)CCCCC2)c1 | inactive: 16.4%
COc1ccc(Cl)cc1C(=O)NCC1(N(C)C)CCCCC1 | inactive: 7.4%
O=C(OC1CN2CCC1CC2)C(CO)(c1ccccc1)c1ccccc1 (centres undefined) | inactive: 6.2%
CN(C)c1cccc(C(=O)NCC2(N(C)C)CCCCC2)c1 | inactive: 14.8%
CC(C)Oc1ccc(C(=O)NCC2(N(C)C)CCCCC2)cc1 | inactive: 10.1%
COc1ccc(Br)c(C(=O)NCC2(N3CCCCC3)CCCCC2)c1 | inactive: -0.7%
